In ChEMBL document CHEMBL1128179, “Structure-activity study of tripeptide thrombin inhibitors using alpha-alkyl amino acids and other conformationally constrained amino acid substitutions” (J Med Chem, 1995):

Molecular target: Prothrombin (Bos taurus, UniProt P00735)
Assay: In vitro Enzyme Inhibitory activity measured against Thrombin

IC50: 13 nM
Structure (SMILES): CC(C)(C)OC(=O)N[C@@H](C(=O)N1CC[C@H]1C(=O)N[C@H](C=O)CCCN=C(N)N)c1ccccc1
